Assay results: paper PMC7547737

B1: FLAG-tagged wt AKT1 [not stated] / Ser/Thr-protein phosphatase 2A (PP2A)-catalytic subunit beta isoform [human (endogenous in SK-Br3)] (parent)
chain 1: MSDVAIVKEGWLHKRGEYIKTWRPRYFLLKNDGTFIGYKERPQDVDQREAPLNNFSVAQCQLMKTERPRPNTFIIRCLQWTTVIERTFHVETPEEREEWTTAIQTVADGLKKQEEEEMDFRSGSPSDNSGAEEMEVSLAKPKHRVTMNEFEYLKLLGKGTFGKVILVKEKATGRYYAMKILKKEVIVAKDEVAHTLTENRVLQNSRHPFLTALKYSFQTHDRLCFVMEYANGGELFFHLSRERVFSEDRARFYGAEIVSALDYLHSEKNVVYRDLKLENLMLDKDGHIKITDFGLCKEGIKDGATMKTFCGTPEYLAPEVLEDNDYGRAVDWWGLGVVMYEMMCGRLPFYNQDHEKLFELILMEEIRFPRTLGPEAKSLLSGLLKKDPKQRLGGGSEDAKEIMQHRFFAGIVWQHVYEKKLSPPFKPQVTSETDTRYFDEEFTAQMITITPPDQDDSMECVDSERRPHFPQFSYSASGTA
chain 2: MDDKAFTKELDQWVEQLNECKQLNENQVRTLCEKAKEILTKESNVQEVRCPVTVCGDVHGQFHDLMELFRIGGKSPDTNYLFMGDYVDRGYYSVETVTLLVALKVRYPERITILRGNHESRQITQVYGFYDECLRKYGNANVWKYFTDLFDYLPLTALVDGQIFCLHGGLSPSIDTLDHIRALDRLQEVPHEGPMCDLLWSDPDDRGGWGISPRGAGYTFGQDISETFNHANGLTLVSRAHQLVMEGYNWCHDRNVVTIFSAPNYCYRCGNQAAIMELDDTLKYSFLQFDPAPRRGEPHVTRRTPDYFL

Variants of: B1
Test: co-immunoprecipitation (anti-FLAG IP, western blot quantification)
Conditions: with Ser/Thr-protein phosphatase 2A (PP2A)-catalytic subunit beta isoform [human (endogenous in SK-Br3)], SK-Br3 cells, serum-starved 20 min with 10 μM U0126, 10 μg/ml TZ for 20 min, read off a plot
[1] = individual experiment (grey point)
[2] = individual experiment (white point)

percent of parent [1] | percent of parent [2] | Variant
72 % of wt | 44 % of wt | chain 1 P318A
140 % of wt | 46 % of wt | chain 1 P313A
58 % of wt | 31 % of wt | chain 1 P313A P318A
